Measurements: patent publication US20030181436A1, “Treatment for AIDS, HIV, and other related diseases and compounds for use therewith” (priority 2001, published 2003)

Key:
ACH-2 cells = assay: ACH-2 assay, compound toxicity by MTS dye reduction; format: cell-based; set-up: 9′. CC: unit not given here; conditions: for 9′. CC: exp 2; for % CC: exp 1
Experimental: (§1) U1 and ACH-2 cells were obtained from the AIDS Research and Reference Reagent Program and maintained under standard culture conditions in RPMI 1640 supplemented with 10% fetal bovine serum (heat inactivated), supplemented with 2 mM […], 100U/ml penicillin and 100 μg/ml, streptomycin. U1 cells were derived from the histocytic leukemia cell line U937, and contain a single integrated copy (HIV IIIB) […] a cytokine and/or phorbol inducible provirus. ACH-2 cells are derived from the A3.01 T lymphoblastic cell line, and contain 2 copies of the HIV IIIB provirus, however only one is cytokine and/or phorbol inducible. Cultures were maintained in such a way as to ensure exponential growth of the populations. At the time of the assay, cells were collected by centrifugation and counted by hemacytometer. If cell viability by Trypan Blue dye exclusion was less than 70% the assay was terminated. The cells were adjusted to 5×10^4 cells/mL and 100 μL, placed in 96 well plates with 100 μL media containing a final concentration of […] TNFα and the test compound. Cultures were incubated for 3 days and supernatants harvested. Compound toxicity was determined by MTS dye reduction. Virus expression was measured by supernatant reverse transcriptasc activity.

U1 cells = assay: U1 assay, compound toxicity by MTS dye reduction; format: cell-based
Experimental: as §1

HeLa CD4 LTR β-gal cells = assay: Cytotoxicity for HeLa CD4 LTR β-gal cells
Experimental: At assay termination the assay plates were stained with the soluble tetrazolium-based dye MTS (CellTiter® Reagent, Promega) to determined cell viability and quantify compound toxicity. […] At termination of the assay 20 μL of MTS reagent was added per well. The wells were incubated for 4 h at 37° C., 5% CO2. Adhesive plate scalers were used in place of the lids, the sealed plate was inverted several times to mix the soluble formazan product and the plate was read spectrophotometrically at 490 nm with a 650 nm reference wavelength on a Molecular Devices Vmax plate reader.
This cell line represents one of 3 standard models for performing time of addition assays.

HeLa CD4 LTR B-gal cells = assay: Attachment assay, toxicity on sister plates by MTS; format: cell-based
Experimental: The attachment assay was performed with the HeLa CD4 LTR B-gal cells available from the AIDS Research and Reference Reagent Repository. […] HeLa CD4 LTR B-gal cells express cell surface CD4 and contain an LTR B-galactosidase reporter construct. Upon infection either the Tat protein incorporated into the virion or new Tat produced following virus integration and transcription trans-activate the LTR B-gal reporter, leading to expression of the B-galactosidase enzyme. HeLa CD4 LTR B-gal cells are routinely cultured with the required selection antibiotics and scrended for mycoplasma contamination. Twenty-four h prior to initiation of the assay cells were trypsinized, counted and 1×10^4 cells placed in a 0.2 cm well in media without selection antibiotics. Media was removed and compound media placed on the cells and incubated for 15 to 30 min at 37° C. A known titer of virus was then added to the wells and the incubation continued for 1 h. At the end of the incubation the wells were washed 6 times with media and the culture continued for 48 h. At 48 h the wells were washed one time with PBS and B-galactosidase enzyme expression determined by chemiluminescence per manufacturers instructions (Tropix Gal-screen TM, Tropix, Bedford, Mass.). Compound toxicity was monitored on sister plates using MTS dye reduction. (See Tables 14 through 16 and FIGS. 21 and 22).

[1] = system: CEM-SS cells chronically infected with SK-1; assay: Chronically infected CEM/SK-1 cell assay, cell viability by MTS; format: cell-based
Experimental: Fifty thousand (5.0×104) CEM-SS cells chronically infected with the SK-1 strain of HIV in exponential growth were placed into 0.2 cm wells in a total volume of 200 ul with or without serial dilutions of compound. The chronically infected CEM cells were cultured and the assay performed in RPMI 1640 supplemental with 10% Fetal Bovine Serum (heat inactivated), 2 mM L-glutamine, 100 U/mL penicillin, […] and 10 ug/mL gentamycin. On day 3 cell-free supernatants were collected and cell viability measured by MTS dye reduction. (See Table 13 and FIG. 20).

## Zinc Iodiscorbate [Compound Z]
ACH-2 cells; 0.00063 μg/ml
  9′. CC: 98.0
ACH-2 cells; 0.002 μg/ml
  9′. CC: 93.3
ACH-2 cells; 0.00626 μg/ml
  9′. CC: 96.5
ACH-2 cells; 0.0625 μg/ml
  9′. CC: 89.8
ACH-2 cells; 0.00063 μG/Ml
  % CC: 105.6%
ACH-2 cells; 0.002 μG/Ml [c9]
  % CC: 104.4%
ACH-2 cells; 0.002 μG/Ml [c11]
  % CC: 107.6%
ACH-2 cells; 0.00625 μG/Ml
  % CC: 101.4%
ACH-2 cells; 0.0625 μG/Ml
  % CC: 97.9%
ACH-2 cells; 0.2 μG/Ml
  % CC: 99.7%
ACH-2 cells; 0.625 μG/Ml
  % CC: 93.4%
U1 cells; 0.00063 ug/ml, exp 2
  % CC: 99.2%
U1 cells; 0.00625 ug/ml, exp 2
  % CC: 103.6%
U1 cells; 0.02 ug/ml, exp 2
  % CC: 99.9%
U1 cells; 0.0625 ug/ml, exp 2
  % CC: 100.7%
U1 cells; 0.2 ug/ml, exp 2
  % CC: 96.9%
U1 cells; 2 ug/ml, exp 1
  % CC: 97.7%
U1 cells; 6.25 ug/ml [c4], exp 2
  % CC: 105.0%
U1 cells; 6.25 ug/ml, exp 1
  % CC: 93.1%
U1 cells; U1/TNFα, exp 1, Table 3
  TC50: IITC5O (ug/ml) = 114
HeLa CD4 LTR β-gal cells; 3.2 μG/mL
  % CC: 101.1%
HeLa CD4 LTR β-gal cells; 10 μG/mL
  % CC: 102.8%
HeLa CD4 LTR β-gal cells; 32 μG/mL
  % CC: 101.7%
  TOXICITY VALUES (Cell Titer) MEAN: 1.164 O. D.
HeLa CD4 LTR B-gal cells; 0.32 μG/Ml
  % CC: 100.0%
HeLa CD4 LTR B-gal cells; 1 μG/Ml
  % CC: 100.0%
HeLa CD4 LTR B-gal cells; 3.2 μG/Ml
  % CC: 100.0%
HeLa CD4 LTR B-gal cells; 10 μG/Ml
  % CC: 100.0%
HeLa CD4 LTR B-gal cells; 32 μG/Ml
  % CC: 100.0%
HeLa CD4 LTR B-gal cells; 100 μG/Ml
  % CC: 100.0%
[1]; 0.625 μG/Ml
  % CC: 99.8%
[1]; 2 μG/Ml
  % CC: 94.1%
